Reference: patent publication US11952582B2, “Herbicide-resistance gene and application thereof in plant breeding” (priority 2017, dated 2024)

Test system: PaHPPD mutant M2
Assay: E. coli pigment (OD405 nm) screening system: HPPD activity in the presence of triketone herbicides
Conditions: 0-50 μM herbicide

Row | SMILES | resistance to the herbicide compared with wild-type WT (amount of melanin, OD405 nm)
1 | CS(=O)(=O)c1ccc(C(=O)C2C(=O)CCCC2=O)c([N+](=O)[O-])c1 [mesotrione] | obvious resistance
2 | CS(=O)(=O)c1ccc(C(=O)C2C(=O)CCCC2=O)c(Cl)c1 [sulcotrione] | obvious resistance
